{"source": "patent US9695481B2", "about": "“Polynucleotides comprising a reporter sequence operatively linked to a regulatory element” (UNIVERSITEIT LEIDEN, priority 2010, dated 2017)", "key": {"[1]": {"conditions": "Genotoxicity profile; data extracted from Kirkland et al. 2008; cited from earlier work"}, "[2]": {"conditions": "Genotoxicity profile; data extracted from Kirkland et al. 2008; cited from earlier work", "remark": "listed apart in the source"}, "[3]": {"test_system": "Bscl2-GFP and Srxn1-GFP mES reporter cells", "assay": "ToxTracker GFP reporter assay (Bscl2-GFP/Srxn1-GFP)", "conditions": "from which GFP reporter is induced"}, "Salmonella": {"test_system": "Salmonella", "conditions": "Genotoxicity profile; data extracted from Kirkland et al. 2008; cited from earlier work"}}}
{"smiles": "CC(C)(C)OO", "note": "[Tert-butyl hydroperoxide]", "values": [{"measurement": "In vitro genotoxicity", "setting": "[1]", "result": "Neg."}, {"measurement": "In vivo genotoxicity", "setting": "[2]", "result": "Neg."}, {"measurement": "Bscl2-GFP/Srxn1-GFP Prim. toxic properties", "setting": "[3]", "result": "Pro-oxidant"}, {"measurement": "Ames test", "setting": "Salmonella", "result": "Pos."}]}
